{"sequences": {"note": "By UniProt entry, the sequences of proteins in these tests, tags left out. Residues count along the entry.", "UniProt H0W1Z3, 1-590": "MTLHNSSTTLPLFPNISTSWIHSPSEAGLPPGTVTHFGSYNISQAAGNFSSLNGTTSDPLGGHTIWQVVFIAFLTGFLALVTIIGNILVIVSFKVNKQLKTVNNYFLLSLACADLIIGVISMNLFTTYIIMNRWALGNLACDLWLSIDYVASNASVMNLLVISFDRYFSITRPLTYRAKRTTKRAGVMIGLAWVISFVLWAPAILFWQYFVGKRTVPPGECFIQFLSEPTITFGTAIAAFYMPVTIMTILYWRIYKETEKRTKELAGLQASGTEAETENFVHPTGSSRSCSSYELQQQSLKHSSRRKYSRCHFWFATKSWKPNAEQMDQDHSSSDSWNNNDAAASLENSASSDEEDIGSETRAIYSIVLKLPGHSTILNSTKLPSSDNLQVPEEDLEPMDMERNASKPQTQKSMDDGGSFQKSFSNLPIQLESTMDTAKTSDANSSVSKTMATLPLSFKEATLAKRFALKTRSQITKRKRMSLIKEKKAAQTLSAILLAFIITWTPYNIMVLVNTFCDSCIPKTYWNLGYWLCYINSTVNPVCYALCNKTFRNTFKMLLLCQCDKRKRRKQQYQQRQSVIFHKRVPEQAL"}, "source": "patent US4988691A", "about": "(priority 1989, dated 1991)", "target": "T1, contracturing effect of acetylcholine (Cavia porcellus, UniProt H0W1Z3)", "T1 construct": "Segments measuring 5-6 cm were drawn form the end portion of the small intestine; from tissue; host or cells: guinea pig terminal small intestine (ileum)", "assay": "anticholinergic activity in vitro (contracturing effect of acetylcholine on isolated guinea pig small intestine)", "design": "species or system Guinea pigs"}
{"smiles": "CN1[C@@H]2CC[C@H]1C[C@@H](OC(=O)C(CO)c1ccccc1)C2", "note": "(stereo partly shown) [Atropine, reference compound]", "values": [{"measurement": "Kb", "result": 0.794, "unit": "nM"}]}
